Assay results published in US7429578B2, “Tricyclic inhibitors of poly(ADP-ribose) polymerases” (Agouron Pharmaceuticals, Inc., priority 1999, dated 2008).

Amino acid sequences for entries named in this document (tags omitted).
UniProt P09874, whole entry: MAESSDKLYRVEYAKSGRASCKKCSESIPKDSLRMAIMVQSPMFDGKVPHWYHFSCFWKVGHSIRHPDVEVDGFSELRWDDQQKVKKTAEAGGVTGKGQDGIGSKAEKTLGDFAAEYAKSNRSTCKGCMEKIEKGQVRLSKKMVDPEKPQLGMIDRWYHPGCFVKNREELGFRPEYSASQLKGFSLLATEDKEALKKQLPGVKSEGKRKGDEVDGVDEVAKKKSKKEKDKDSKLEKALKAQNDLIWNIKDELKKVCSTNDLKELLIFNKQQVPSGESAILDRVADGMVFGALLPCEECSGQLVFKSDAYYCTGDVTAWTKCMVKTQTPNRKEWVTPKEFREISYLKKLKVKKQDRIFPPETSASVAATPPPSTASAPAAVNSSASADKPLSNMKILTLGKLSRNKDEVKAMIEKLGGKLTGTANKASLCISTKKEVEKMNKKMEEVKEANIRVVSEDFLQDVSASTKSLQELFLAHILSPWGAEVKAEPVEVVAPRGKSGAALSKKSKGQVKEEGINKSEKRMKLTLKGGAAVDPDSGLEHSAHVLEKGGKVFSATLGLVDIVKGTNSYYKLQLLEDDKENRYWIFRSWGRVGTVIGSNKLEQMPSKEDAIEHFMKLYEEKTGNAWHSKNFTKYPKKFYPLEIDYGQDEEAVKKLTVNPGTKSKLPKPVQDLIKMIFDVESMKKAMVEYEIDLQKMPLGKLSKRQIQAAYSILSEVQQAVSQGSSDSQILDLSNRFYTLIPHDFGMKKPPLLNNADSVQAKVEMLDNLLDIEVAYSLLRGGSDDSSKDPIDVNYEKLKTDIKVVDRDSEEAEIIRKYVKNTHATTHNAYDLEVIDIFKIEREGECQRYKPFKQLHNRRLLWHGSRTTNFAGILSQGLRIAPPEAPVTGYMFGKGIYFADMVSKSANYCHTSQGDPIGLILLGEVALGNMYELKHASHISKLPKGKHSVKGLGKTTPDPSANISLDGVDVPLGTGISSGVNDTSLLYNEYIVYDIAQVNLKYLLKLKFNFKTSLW

Molecular target: purified PARP protein (Homo sapiens, UniProt P09874)
Experiment: PARP enzyme inhibition assay
Type: biochemical
Conditions: read-out: Inhibition Constant Ki; [32P]NAD+ incorporation, 500 μM NAD+, 25° C.; two values in a cell = tested twice

COc1ccc(-c2[nH]c3cccc4c3c2CCNC4=O)cc1
Ki: 6.2 nM and 4.5 nM

“And” between values parts separate entries of the source, which are not always exact repeats. Equal entries are not always repeated.
